Screening results from PubChem.
ARFGAP1 inh = inhibitors of rat ARFGAP1 GAP activity, primary screen, biochemical, fluorescence polarization, GDP tracer; ADP-ribosylation factor GTPase-activating protein 1 (Rattus norvegicus), Q62848; Arfgap1-stimulated ARF1 GTP hydrolysis, GDP FP detection; inhibition, % at 16.5 µM; actives 0.26% (n = 360,000); AID 651572, 2012;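 active means inhibition above a per-plate limit, mean inhibition of low control wells plus 3 SD, cut at about 25% in these data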;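 further: 0% = DMSO wells with enzyme and 100% = wells lacking Arfgap1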
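System: truncated rat Arfgap1 GAP domain / Benchmarks: high control wells lacking Arfgap1, low control full reaction with DMSO / Times: compound-enzyme preincubation 20 min, reaction 120 min, detection 60 min, 25 °C / Repeats: one replicate per compound / Also added: human ARF1(Δ1-17)-GTP substrate / Measured by: Tracer-displacement fluorescence polarization with EDTA stop, 620/688 nm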
MC4R antagonist = MC4R antagonists of cAMP signaling, primary screen, cell-based, TR-FRET, antagonist arm of biased-ligand search; Melanocortin receptor 4 (Homo sapiens), P32245; inhibition, % at 6.5 µM; actives 0.48% (n = 360,000); AID 540295, 2011; MC4R-expressing cells, MTII-stimulated cAMP, LANCE TR-FRET;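 active means inhibition above its plate's cutoff, the mean of tested wells on that plate plus 3 SD, cut at about 29% in these data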;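 further: 0% = Melanotan II alone and 100% = Melanotan II plus saturating MCL0020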
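system = U2OS cells with stable human MC4R expression | also added = Melanotan II challenge after compound preincubation | dosing = one concentration, 6.5 µM nominal | incubation = compound 30 min, challenge 1 h, detection 1 h | measured by = TR-FRET with Eu-cAMP and labeled anti-cAMP, 671 nm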
ASAP1 inh = inhibitors of human ASAP1 ArfGAP activity, primary screen, biochemical, fluorescence polarization | Arf-GAP with SH3 domain, ANK repeat and PH domain-containing protein 1 (Homo sapiens), … | ASAP1-stimulated ARF1 GTP hydrolysis, GDP FP detection | inhibition, % at 16.5 µM | actives 0.19% (n = 360,000) | AID 624377, 2012; in the data active means inhibition above about 25%;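 further: 0% = vehicle with enzyme and substrate and 100% = no enzyme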
CendR NRP1 mod = modulators of CendR peptide binding to NRP-1, primary screen, biochemical, fluorescence polarization, uHTS; inhibition, % at 25 µM; AID 602438, 2012; Neuropilin-1 (Homo sapiens), O14786; actives 0.85% (n = 360,000); FAM-RPARPAR peptide binding to NRP-1;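 active means inhibition or corrected inhibition above about 18%, plus a signal ratio from 0.5 to 1.5, limit read from the data, passing the limit was not always enough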
UUG fidelity = yeast start codon fidelity modulation | S. cerevisiae UUG-firefly luciferase reporter, luminescence/redox ratio | activity score, % at 18.7 µM | 0.13% of 350,000 active | AID 602363;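 active means replicate mean at a twofold rise or more, about +100% in these data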;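 further: firefly luciferase made from a UUG start codon reports start codon fidelity; reporter light over untreated wells divided by growth signal over untreated wells; some hits fall short of that in this replicate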
MC4R ag barr = MC4R agonists recruiting beta-arrestin, primary screen, cell-based, luminescence, agonist arm of biased-ligand search; Melanocortin receptor 4 (Homo sapiens), P32245; U2OS MC4R beta-arrestin complementation; percent of melanotan II response, DMSO zero; activation, % at 8.9 µM; actives 0.98% (n = 360,000);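 active means activation above a per-plate cutoff, the mean activation of sample wells on that plate plus 3 SD, cut at about 8% in these data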
Starred values were filed as active, the others as inactive; · = not tested or not shown. Rows were chosen to be rich in hits. Some 2.3% of all compounds tested hit in one or more screens of this group.

Amino acid sequences for entries named in this document (tags omitted).
ADP-ribosylation factor GTPase-activating protein 1 (Rattus norvegicus), Q62848, UniProt Q62848, whole entry, looked up: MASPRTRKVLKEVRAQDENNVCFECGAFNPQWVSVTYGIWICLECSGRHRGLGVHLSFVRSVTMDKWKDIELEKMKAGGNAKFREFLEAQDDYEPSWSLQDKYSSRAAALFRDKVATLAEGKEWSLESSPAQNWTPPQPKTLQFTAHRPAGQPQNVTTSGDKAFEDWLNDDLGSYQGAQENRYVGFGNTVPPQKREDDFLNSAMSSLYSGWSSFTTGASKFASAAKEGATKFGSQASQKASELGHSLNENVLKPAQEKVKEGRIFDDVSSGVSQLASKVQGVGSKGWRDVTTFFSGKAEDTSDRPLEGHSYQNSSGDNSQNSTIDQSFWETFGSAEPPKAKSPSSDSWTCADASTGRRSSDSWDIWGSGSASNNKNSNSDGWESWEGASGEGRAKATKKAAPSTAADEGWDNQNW
Melanocortin receptor 4 (Homo sapiens), P32245, UniProt P32245, whole entry, looked up: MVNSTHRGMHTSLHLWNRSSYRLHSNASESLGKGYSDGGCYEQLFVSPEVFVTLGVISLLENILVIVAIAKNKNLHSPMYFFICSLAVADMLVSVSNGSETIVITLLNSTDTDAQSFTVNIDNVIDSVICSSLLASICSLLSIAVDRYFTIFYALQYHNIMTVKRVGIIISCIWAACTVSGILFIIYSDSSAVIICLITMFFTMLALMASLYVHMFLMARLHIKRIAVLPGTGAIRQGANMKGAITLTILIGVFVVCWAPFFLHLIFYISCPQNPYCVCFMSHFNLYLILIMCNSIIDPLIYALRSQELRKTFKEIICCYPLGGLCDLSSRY
Neuropilin-1 (Homo sapiens), O14786, UniProt O14786, whole entry, looked up: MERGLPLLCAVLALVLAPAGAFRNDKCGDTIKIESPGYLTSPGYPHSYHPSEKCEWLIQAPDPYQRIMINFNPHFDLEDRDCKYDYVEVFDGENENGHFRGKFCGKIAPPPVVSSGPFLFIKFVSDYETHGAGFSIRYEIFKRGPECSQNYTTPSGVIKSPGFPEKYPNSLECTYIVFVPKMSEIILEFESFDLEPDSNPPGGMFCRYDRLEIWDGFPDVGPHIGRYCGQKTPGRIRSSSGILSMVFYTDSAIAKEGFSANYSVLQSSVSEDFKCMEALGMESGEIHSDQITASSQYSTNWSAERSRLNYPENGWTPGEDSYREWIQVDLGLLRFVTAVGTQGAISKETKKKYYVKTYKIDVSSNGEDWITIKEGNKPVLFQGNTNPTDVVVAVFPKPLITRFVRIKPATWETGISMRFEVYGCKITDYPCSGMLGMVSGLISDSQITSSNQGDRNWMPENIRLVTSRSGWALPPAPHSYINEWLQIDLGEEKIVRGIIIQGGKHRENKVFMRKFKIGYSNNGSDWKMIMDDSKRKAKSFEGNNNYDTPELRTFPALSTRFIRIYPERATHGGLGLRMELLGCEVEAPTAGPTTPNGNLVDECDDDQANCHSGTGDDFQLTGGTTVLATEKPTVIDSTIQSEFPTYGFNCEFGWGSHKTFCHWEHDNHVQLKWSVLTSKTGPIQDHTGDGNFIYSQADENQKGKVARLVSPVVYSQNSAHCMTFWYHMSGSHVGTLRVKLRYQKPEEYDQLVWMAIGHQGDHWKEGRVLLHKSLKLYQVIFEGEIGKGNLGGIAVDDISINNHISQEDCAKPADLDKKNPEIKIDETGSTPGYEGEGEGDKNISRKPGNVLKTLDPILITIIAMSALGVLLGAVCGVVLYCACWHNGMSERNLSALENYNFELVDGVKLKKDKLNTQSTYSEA

| cpd | SMILES | ARFGAP1 inh | MC4R antagonist | ASAP1 inh |
| --- | --- | --- | --- | --- |
| 1 | COc1ccc(CN(C)C[C@H]2Oc3ccc(NS(=O)(=O)c4ccc(C)cc4)cc3C(=O)N([C@H](C)CO)C[C@H]2C)cc1 | · | · | · |
| 2 | NS(=O)(=O)c1ccc(CNC(=S)NCc2ccc(F)cc2)cc1 | 2 | 3 | -3 |
| 3 | Fc1ccc(CNC(=S)NC2CCCC2)cc1 | 5 | -3 | 10 |
| 4 | Fc1ccc(CNC(=S)NC2CCCCC2)cc1 | 7 | 11 | 5 |
| 5 | CO[C@H]1CN(C)C(=O)c2cc(NC(=O)Nc3ccccc3)ccc2OC[C@@H](C)N(C(C)=O)C[C@H]1C | · | · | · |
| 6 | Cc1ccccc1S(=O)(=O)N1C[C@@H](O)COC[C@H]2O[C@@H](CC(=O)N3CCCCC3)CC[C@@H]21 | · | · | · |
| 7 | CNC[C@@H]1Oc2cc(C#Cc3ccccn3)ccc2S(=O)(=O)N([C@@H](C)CO)C[C@H]1C | · | · | · |
| 8 | COCCNC(=O)C[C@@H]1C[C@@H]2c3cc(NS(=O)(=O)c4ccc(F)cc4)ccc3O[C@@H]2[C@@H](CO)O1 | · | · | · |
| 9 | Cc1ccc(C)c(N2C(=O)c3ccc(C(=O)Nc4ccccn4)cc3C2=O)c1 | 2 | 8 | 10 |
| 10 | Cc1ccc(C(=O)Nc2ccccc2C(=O)Nc2ccccn2)cc1Cl | 0 | 7 | 7 |
| 11 | Cc1ccc(C(=O)Nc2cccnc2Cl)cc1Cl | 3 | 5 | 0 |
| 12 | Cc1cccc(N2C(=O)c3ccc(C(=O)Nc4ccccn4)cc3C2=O)c1 | 3 | 7 | 1 |
| 13 | COC(=O)c1sc2ncccc2c1OCc1c(Cl)cccc1Cl | 15 | -1 | 0 |
| 14 | C[C@@H]1CCCCO[C@@H](CN(C)C(=O)NC2CCCCC2)[C@H](C)CN([C@@H](C)CO)C(=O)c2cc(NC(=O)Cc3ccccc3)ccc2O1 | · | · | · |
| 15 | COc1cc(C2Nc3cccc4cccc(c34)N2)cc(OC)c1OC(C)=O | -5 | 4 | 0 |

| cpd | CendR NRP1 mod | UUG fidelity | MC4R ag barr |
| --- | --- | --- | --- |
| 1 | · | 2 | · |
| 2 | 25* | -22 | -1 |
| 3 | 32* | · | -1 |
| 4 | 2 | -25 | 0 |
| 5 | · | 20 | · |
| 6 | · | 9 | · |
| 7 | · | 7 | · |
| 8 | · | 6 | · |
| 9 | 22* | -15 | 2 |
| 10 | 28* | -6 | 2 |
| 11 | 3 | -14 | -1 |
| 12 | -12 | -15 | -2 |
| 13 | -37 | -21 | 20* |
| 14 | · | 0 | · |
| 15 | 25* | · | -1 |

Random excerpt: four entries already listed.
| cpd | SMILES | ARFGAP1 inh | MC4R antagonist | ASAP1 inh |
| --- | --- | --- | --- | --- |
| 13 | COC(=O)c1sc2ncccc2c1OCc1c(Cl)cccc1Cl | 15 | -1 | 0 |
| 4 | Fc1ccc(CNC(=S)NC2CCCCC2)cc1 | 7 | 11 | 5 |
| 8 | COCCNC(=O)C[C@@H]1C[C@@H]2c3cc(NS(=O)(=O)c4ccc(F)cc4)ccc3O[C@@H]2[C@@H](CO)O1 | · | · | · |
| 5 | CO[C@H]1CN(C)C(=O)c2cc(NC(=O)Nc3ccccc3)ccc2OC[C@@H](C)N(C(C)=O)C[C@H]1C | · | · | · |

| cpd | CendR NRP1 mod | UUG fidelity | MC4R ag barr |
| --- | --- | --- | --- |
| 13 | -37 | -21 | 20* |
| 4 | 2 | -25 | 0 |
| 8 | · | 6 | · |
| 5 | · | 20 | · |

(continued)
| cpd | SMILES | ARFGAP1 inh | MC4R antagonist | ASAP1 inh |
| --- | --- | --- | --- | --- |
| 16 | COc1ccc(NC(=O)N[C@H]2CC[C@@H](CCNC(=O)Cc3ccncc3)O[C@@H]2CO)cc1 | · | · | · |
| 17 | CCOC(=O)c1[nH]c(C)c(C(=O)OCC(=O)N(C)C2CCS(=O)(=O)C2)c1C (centres undefined) | -6 | 7 | -4 |
| 18 | CN(C(=O)COC(=O)c1ccccc1SCC(=O)N1CCCC1)C1CCS(=O)(=O)C1 (centres undefined) | 7 | 6 | 6 |
| 19 | Cc1noc(C)c1NC(=O)N(C)C[C@@H]1Oc2ccc(NS(C)(=O)=O)cc2CC(=O)N([C@@H](C)CO)C[C@@H]1C | · | · | · |
| 20 | CO[C@@H]1CN(C)C(=O)c2ccc(NC(=O)C3CC3)cc2OC[C@H](C)N(C(=O)C2CCCCC2)C[C@H]1C | · | · | · |
| 21 | C[C@@H]1CN([C@@H](C)CO)C(=O)c2cc(NC(=O)NC3CCCCC3)ccc2O[C@H]1CN(C)C(=O)Nc1cccc2ccccc12 | · | · | · |
| 22 | O=C(NCCn1cccn1)C1CCC(=O)N(CCc2cccc(F)c2)C1 (centres undefined) | -4 | 1 | -15 |
| 23 | O=C(NCCN1CCCC1=O)C1CCC(=O)N(CCc2cccc(F)c2)C1 (centres undefined) | 13 | 2 | 0 |
| 24 | COc1c(O)cccc1[C@H](O)C1CCN(CCc2ccc(F)cc2)CC1 | 2 | -5 | -8 |
| 25 | CCN1CCC(NCCc2ccc(F)cc2)CC1 | -3 | 6 | 5 |
| 26 | CCCCNC(=O)[C@H]1C[C@H]1[C@@H](O)[C@H](CO)NC(=O)[C@H](CC(C)C)NC(=O)OC(C)(C)C | · | 18 | · |
| 27 | Cc1ccc(NS(=O)(=O)c2ccc(C(=O)NCc3cccnc3)cc2)cc1 | 0 | 4 | -5 |
| 28 | COc1cccc(C2=NNC(=NCc3ccccc3)SC2)c1 | 2 | 0 | 10 |
| 29 | O=C(C[C@H]1C[C@@H]2c3cc(NC(=O)Nc4ccccc4F)ccc3O[C@@H]2[C@@H](CO)O1)NCc1ccncc1 | · | · | · |
| 30 | O=C(c1ccccc1)c1cc(Cl)ccc1N1C(=O)C=CC1=O | -6 | 58* | -6 |

| cpd | CendR NRP1 mod | UUG fidelity | MC4R ag barr |
| --- | --- | --- | --- |
| 16 | · | -4 | · |
| 17 | 7 | · | 8.3* |
| 18 | 20* | -9 | -1 |
| 19 | · | 12 | · |
| 20 | · | 35 | · |
| 21 | · | 3 | · |
| 22 | 47* | -17 | -3 |
| 23 | 4 | -13 | -2 |
| 24 | 43* | -12 | -2 |
| 25 | -8 | -24 | 1 |
| 26 | 34* | -11 | -1 |
| 27 | 21* | -5 | -3 |
| 28 | 31* | · | -1 |
| 29 | · | -16 | · |
| 30 | -4 | -24 | -1 |

Further entries follow.
| cpd | SMILES | ARFGAP1 inh | MC4R antagonist | ASAP1 inh |
| --- | --- | --- | --- | --- |
| 31 | COc1ccc(CN(C)C[C@H]2Oc3ccc(NS(=O)(=O)c4c(C)noc4C)cc3C(=O)N([C@H](C)CO)C[C@@H]2C)cc1 | · | · | · |
| 32 | O=C1c2ccccc2C(=O)c2c(/C=C/N3CCCCC3)ccnc21 | -3 | -9 | -14 |
| 33 | COc1cccc(-c2ccc3c(c2)[C@@H]2[C@@H](CCN2C(=O)c2ccccn2)[C@@H](CO)N3C)c1 | · | · | · |
| 34 | COc1cc(CNCCc2c[nH]c3ccccc23)ccc1OCc1ccc(F)cc1 | 9 | -2 | -11 |
| 35 | CCOC(=O)N1CCN(C(=O)C[C@@H]2C[C@@]3(C(=O)OCC)CCCC=C3N(Cc3ccccc3)C2=O)CC1 | 0 | · | 10 |
| 36 | COc1ccc2cc(/C=N/NC(=O)CSCc3ccc([N+](=O)[O-])cc3)c(Cl)nc2c1 | -3 | 10 | -10 |
| 37 | C[C@H]1CN([C@@H](C)CO)C(=O)Cc2cc(NC(=O)c3ccncc3)ccc2O[C@@H]1CN(C)S(=O)(=O)c1cn(C)cn1 | · | · | · |
| 38 | Cc1ccc2cc3cc(C(=O)N(CC(=O)NC4CCCC4)c4cccc(C)c4C)sc3nc2c1 | 0 | 34* | 5 |
| 39 | Cc1ccc(C)c(N(CC(=O)NC2CCCC2)C(=O)c2cc3cc4cccc(C)c4nc3s2)c1 | 12 | 12 | 3 |
| 40 | C=CCn1nc(-c2ccccc2)cc1C(=O)OCC | 6 | 8 | -5 |

| cpd | CendR NRP1 mod | UUG fidelity | MC4R ag barr |
| --- | --- | --- | --- |
| 31 | · | -9 | · |
| 32 | 80* | · | -1 |
| 33 | · | -13 | · |
| 34 | 0 | 15 | 9.2* |
| 35 | 36* | · | · |
| 36 | -35 | -23 | 12* |
| 37 | · | -5 | · |
| 38 | -3 | -16 | 1 |
| 39 | -6 | -19 | -1 |
| 40 | 28* | -9 | 0 |
